The record followed here is patent US20180168208A1 (priority 2014, published 2018).

Structures can show the parent of a compound that is named as a salt.

The target in the assay is T1, cat T1R1/T1R3 receptor (Felis catus, UniProt A0ABI7Z2I4).
T1 sequence (A0ABI7Z2I4 171-420): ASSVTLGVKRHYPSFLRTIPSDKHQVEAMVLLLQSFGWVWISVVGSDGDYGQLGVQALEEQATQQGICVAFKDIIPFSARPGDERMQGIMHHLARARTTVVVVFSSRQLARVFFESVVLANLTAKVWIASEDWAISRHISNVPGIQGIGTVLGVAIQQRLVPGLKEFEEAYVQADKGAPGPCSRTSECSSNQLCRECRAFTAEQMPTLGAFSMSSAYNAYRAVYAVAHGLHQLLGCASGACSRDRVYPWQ
T1 sequence (Q49KI5 25-865 E206Q/N523D/F654L partner): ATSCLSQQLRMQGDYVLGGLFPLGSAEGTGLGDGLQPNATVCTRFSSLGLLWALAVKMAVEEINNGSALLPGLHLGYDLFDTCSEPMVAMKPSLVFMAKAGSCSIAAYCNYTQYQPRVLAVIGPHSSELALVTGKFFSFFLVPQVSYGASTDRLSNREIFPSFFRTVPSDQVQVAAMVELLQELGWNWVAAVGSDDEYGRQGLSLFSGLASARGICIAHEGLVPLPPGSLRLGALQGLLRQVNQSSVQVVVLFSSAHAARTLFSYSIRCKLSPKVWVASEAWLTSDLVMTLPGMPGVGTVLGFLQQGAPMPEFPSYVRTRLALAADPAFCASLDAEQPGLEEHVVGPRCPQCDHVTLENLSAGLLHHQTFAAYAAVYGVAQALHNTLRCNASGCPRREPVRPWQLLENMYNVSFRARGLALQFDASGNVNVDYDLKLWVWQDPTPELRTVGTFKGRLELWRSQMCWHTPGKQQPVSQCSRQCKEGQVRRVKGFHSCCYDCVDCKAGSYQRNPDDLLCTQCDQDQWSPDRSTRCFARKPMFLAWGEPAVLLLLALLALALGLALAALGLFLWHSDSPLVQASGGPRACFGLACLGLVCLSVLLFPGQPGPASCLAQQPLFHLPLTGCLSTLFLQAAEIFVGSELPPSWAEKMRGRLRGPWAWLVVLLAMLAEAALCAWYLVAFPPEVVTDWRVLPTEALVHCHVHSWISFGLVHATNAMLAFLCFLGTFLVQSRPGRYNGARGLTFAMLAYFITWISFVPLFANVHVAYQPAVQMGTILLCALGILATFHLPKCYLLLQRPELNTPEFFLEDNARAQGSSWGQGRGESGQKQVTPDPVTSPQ
Format: cell-based. As to conditions: +Alanine (20 mM).

On to `Nc1ncnc2c1ncn2C1OC(COP(=O)(O)OS(=O)(=O)O)C(O)C1O` (stereo not shown) [Adenosine 5′-phosphosulfate sodium salt, Adenosine 5′-phosphosulfate], for which the result was active.
